AlphaSeq binding of Ab-14 light chain variants to a spike HR2 peptide

Antigen: PDVDLGDISGINAS, a 14-residue peptide of the SARS-CoV-2 spike HR2 region.

The variants keep the heavy chain, the linker and the frameworks of Ab-14 (scFv order VH, three GGGGS repeats, VL).
VH: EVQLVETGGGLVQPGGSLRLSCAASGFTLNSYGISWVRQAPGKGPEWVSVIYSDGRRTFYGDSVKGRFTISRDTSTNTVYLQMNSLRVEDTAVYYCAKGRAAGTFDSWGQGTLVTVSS
VL: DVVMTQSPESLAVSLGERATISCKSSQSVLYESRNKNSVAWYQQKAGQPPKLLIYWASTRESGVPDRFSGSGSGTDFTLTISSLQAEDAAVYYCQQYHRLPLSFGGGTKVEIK

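The starting antibody came from a phage panning campaign against this peptide. This is the validation round: designs drawn from the data on random variants, tested in the same kind of assay. Their group label is 14L_Ctrl (Ctrl: baseline library sampled from a position-specific scoring matrix, with some repeated check sequences). The assay is AlphaSeq: two haploid yeast populations carry antibody and antigen on their surface. Binding brings cells together so that they mate, and sequencing counts the barcode pairs among the diploids. Each replicate has its own calibration line, from reference interactions of the BCL2 family. The assay was run in six technical replicates.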

Variants are written as CDR1, CDR2 and CDR3 of the light chain (limits as in the source). Parent: KSSQSVLYESRNKNSVA, WASTRES, QQYHRLPLS.
The read-out is the apparent dissociation constant on a log10 scale (nM): the lower, the stronger.
The mean shown is taken over the replicates in which the pair was detected.
"ND" means that the variant was in the library but no mating with the target was seen in that replicate; the authors take this as a sign of poor binding, and no number exists.
Empty control strains, which show no peptide, gave a signal in 4% of pairings with all light chain designs; the median was 2.64 and 95% of these signals were weaker than 1.59. No background was subtracted. For each scFv, signals with the empty controls are counted beside the result, with their mean in brackets.
Values of this round are not directly comparable with the first-round values of the same sequences.
The authors' rule: three or more of the six replicates give a measured affinity, fewer mean a poor binder.

CDR-L1,CDR-L2,CDR-L3,log10 Kd (nM) by replicate,"log10 Kd (nM), mean",control signals
KSSQSVRYESRNKNSVA,DAKTREF,QQYHRLPLK,-0.18 / 2.34 / 0.74 / -0.20 / 0.11 / 0.19,0.50,0 of 18
KSSNSVLGEERNKNSVA,RASTRES,QQYHRLPLS,0.25 / 0.27 / 0.09 / 0.42 / 0.47 / 0.17,0.28,0 of 18
KSQQSVLDESRNKNSVA,TASTRES,QQYHRLELS,ND / ND / ND / ND / ND / ND,ND,0 of 18
KVSQSVLYEERNKNSVA,WASTRES,QQYHRLPLS,0.67 / 0.61 / 0.71 / 0.72 / 0.45 / 0.66,0.64,0 of 18
KSSQLVLYESRNKNSVA,WASVREA,QQYHRLPLS,0.98 / 1.79 / 2.30 / 1.84 / 1.31 / 2.59,1.80,0 of 18
KSSQSVLYESRNKNSVA,QDSTRES,QQYHRLPLS,1.07 / 2.66 / 1.43 / 1.19 / 0.53 / 1.41,1.38,1 of 18 (2.19)
KGDQSVLYESRWKNSVA,WASTRES,QQYHCLPLS,ND / ND / ND / ND / ND / ND,ND,1 of 18 (1.12)
KVSQSVLYLSNNKNSVA,SASTRES,QSYHRLPLS,0.33 / -0.05 / -0.03 / -0.08 / -0.13 / 0.30,0.06,0 of 18
KSSQSVLYESRNKNHVA,GASTRES,QQYSRLPLS,0.56 / 0.79 / 0.62 / 0.45 / 0.83 / 0.86,0.69,1 of 18 (2.69)
KSSQSVLYEERPKNSMA,AASTRES,QQYHRLPLS,0.11 / 0.17 / 0.44 / -0.05 / 0.05 / -0.10,0.10,0 of 18
KSSQSVLYESRNVNSVA,WASTRES,QQDHRLPLS,0.96 / ND / 1.46 / ND / ND / 1.60,1.34,0 of 18
KSSQSVSYESRNKNSVA,KASTRES,QQYHRLPLS,1.32 / ND / ND / 2.01 / ND / 2.07,1.80,0 of 18
KVSQSVLYESTNKNSVA,QASTRES,QQYHRLPLS,0.45 / -0.07 / 0.12 / 0.24 / -0.30 / 0.50,0.16,1 of 18 (2.48)
KSSQSVLYESRNKYSVA,WASTRES,QQYHRLPLS,1.64 / 1.73 / 1.95 / 1.75 / 2.84 / 2.38,2.05,1 of 18 (3.60)
KSSESVLYESRNKNHVA,WASTRES,QQYHGLPLS,ND / ND / ND / ND / 3.00 / ND,3.00,1 of 18 (1.87)
KSSQSVLYESRNKNSVA,NASTRES,QQYHREPLS,ND / ND / ND / ND / ND / ND,ND,0 of 18
KSSQSVLYESRNKKSVA,WASTRES,QQYHRLPLS,1.07 / 2.79 / ND / ND / ND / ND,1.93,0 of 18
KSSPSELEESRNKNSVA,GASTREL,QQYERLPFS,0.06 / 0.21 / 0.04 / 0.15 / 0.01 / 0.33,0.13,0 of 18
KSSLSYLYESRNKNNVA,WASTREN,QQYHRLPES,ND / ND / ND / ND / 1.83 / ND,1.83,0 of 18
KSSQSVLYESRNKNSIA,WASTREA,QSYHRLPLS,ND / ND / ND / 1.89 / ND / ND,1.89,0 of 18
KSGQSVLYESRNPNSVA,QASTRES,QQYHRLPLS,0.36 / 0.44 / 0.65 / 0.35 / 0.02 / 0.40,0.37,1 of 18 (1.64)
HISQSVLYESRNKGSVA,KASTRES,QQYHRLPLS,0.16 / 0.71 / 0.52 / 0.57 / 0.62 / 0.70,0.55,0 of 18
KLPQNVLYESCNKNSVA,WASARES,QQYHRLPLS,ND / ND / 1.80 / 2.32 / 3.61 / 1.29,2.25,0 of 18
KSSQLVLYESRNKNSVA,WASTRES,QQGHRLPLS,ND / ND / ND / ND / ND / ND,ND,0 of 18
KQRESVYYESFNKNSVA,WASTRES,QTYHRLPLS,ND / 1.50 / ND / ND / ND / ND,1.50,0 of 18
KANQSVLHESRNKNSVA,EASTTES,QQKNRLPLS,ND / 1.22 / 0.22 / 1.17 / 1.36 / 1.77,1.15,0 of 18
KIQQAVLYESQNKNSVA,WASTRES,QQYHRLPLS,0.61 / ND / 1.19 / 1.74 / 2.27 / 1.92,1.55,0 of 18
KSSNSVLYESRNKNSVA,HASTRES,QQYHRLPLS,0.96 / 0.70 / 1.10 / 0.86 / 1.11 / 1.32,1.01,0 of 18
KMSQSVLYESRNKNSVA,QASTRES,EQPHWLPLS,0.18 / -0.49 / -0.58 / -0.39 / -0.60 / -0.36,-0.37,0 of 18
KVSQSVLYESRNKNCVA,WASTRES,QQYSRLPLS,1.07 / 1.85 / 3.11 / 0.81 / 1.29 / 2.02,1.69,0 of 18
KTSQSVLYESRNKNSVA,DASTRAY,QQYHRLPLS,0.58 / 0.65 / 0.85 / 0.94 / 0.55 / 0.67,0.71,1 of 18 (2.60)
KSSQSVLYESRNKNSVA,AASTRES,PQYHRLPLS,ND / ND / ND / 4.14 / ND / ND,4.14,0 of 18
KSSQSVLDESCNKNSVA,DASQRVS,QQYARLPLS,0.98 / 0.91 / 0.58 / 0.58 / 1.02 / 0.83,0.82,0 of 18
KSSQSALYESVNKNSVA,WASTRES,QQYHRLPLS,1.32 / 2.29 / 1.66 / 1.18 / 1.57 / 1.76,1.63,0 of 18
KHSISGLYESRNYNSVA,WADTRES,QQYHRLPLS,ND / ND / ND / ND / ND / ND,ND,0 of 18
KSSQSGLNESRNKNSVA,SASTRES,QQYHRLPLS,1.27 / 1.26 / 1.38 / 1.48 / 0.91 / 0.83,1.19,1 of 18 (2.83)
KSSQIVLYTSANKNSVA,KASTRES,QQYHRLPLS,0.43 / 0.19 / 1.11 / 0.79 / -0.06 / 0.79,0.54,1 of 18 (3.52)

Picked from the list: the 6 lowest averages where every replicate gave a value.

CDR-L1,CDR-L2,CDR-L3,log10 Kd (nM) by replicate,"log10 Kd (nM), mean",control signals
KMSQSVLYESRNKNSVA,QASTRES,EQPHWLPLS,0.18 / -0.49 / -0.58 / -0.39 / -0.60 / -0.36,-0.37,0 of 18
KVSQSVLYLSNNKNSVA,SASTRES,QSYHRLPLS,0.33 / -0.05 / -0.03 / -0.08 / -0.13 / 0.30,0.06,0 of 18
KSSQSVLYEERPKNSMA,AASTRES,QQYHRLPLS,0.11 / 0.17 / 0.44 / -0.05 / 0.05 / -0.10,0.10,0 of 18
KSSPSELEESRNKNSVA,GASTREL,QQYERLPFS,0.06 / 0.21 / 0.04 / 0.15 / 0.01 / 0.33,0.13,0 of 18
KVSQSVLYESTNKNSVA,QASTRES,QQYHRLPLS,0.45 / -0.07 / 0.12 / 0.24 / -0.30 / 0.50,0.16,1 of 18 (2.48)
KSSNSVLGEERNKNSVA,RASTRES,QQYHRLPLS,0.25 / 0.27 / 0.09 / 0.42 / 0.47 / 0.17,0.28,0 of 18

Values reported by Li et al. 2023, doi:10.1038/s41467-023-39022-2 (FLAb copy).